scFv variants of Ab-14 (heavy chain) against a SARS-CoV-2 spike peptide

Values reported by Engelhart et al. 2022, doi:10.1038/s41597-022-01779-4 (FLAb copy).

Target peptide (SARS-CoV-2 spike, HR2 region): PDVDLGDISGINAS

Each scFv is VH, a 15-residue (Gly4Ser)3 linker, VL, as in the parent Ab-14, and differs from it in the CDRs of the heavy chain only.
VH: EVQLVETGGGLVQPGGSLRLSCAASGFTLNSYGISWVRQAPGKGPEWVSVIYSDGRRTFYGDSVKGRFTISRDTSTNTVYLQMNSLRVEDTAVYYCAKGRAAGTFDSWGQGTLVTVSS
VL: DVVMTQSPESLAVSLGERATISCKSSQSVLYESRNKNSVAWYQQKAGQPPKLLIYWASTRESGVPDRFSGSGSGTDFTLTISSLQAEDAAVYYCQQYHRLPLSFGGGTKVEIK

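The parent was found by panning a naive human phage display library on the peptide. Variants in AAYL49 differ from the parent at up to three CDR positions; double and triple changes were sampled at random. Affinity was read by AlphaSeq, a pooled yeast mating assay with surface-displayed partners. Binding brings cells together so that they mate, and sequencing counts the barcode pairs among the diploids. The ratio of observed to expected reads was calibrated, replicate by replicate, on BCL2-family standards whose Kd was known from biolayer interferometry. The assay was run in three technical replicates.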

Each variant is given by its three heavy chain CDRs, as the data file delimits them; those of the parent are GFTLNSYGIS, VIYSDGRRTFYGDSVK, GRAAGTFDS.
Each Kd is an estimate from the mating assay, the geometric mean of the replicates in which the pair was seen; lower is stronger.
"no signal" means that the variant was in the library but no mating with the target was seen in any replicate; the authors take this as a sign of poor binding, and no number exists.
Three control strains display no target. For library AAYL49, 15% of the pairings with them gave a signal, with a median of 11 µM and one signal in twenty below 680 nM, so weak values seen in few replicates may be background. For each scFv, signals with the empty controls are counted beside the result.

CDR-H1,CDR-H2,CDR-H3,Kd (apparent),replicates with signal,signal with controls
GFTCNSYGIS,GIYSDGRRTFYGDSVK,GRAAGYFDS,160 µM,2/3,3/9
GFTLNSYGIS,QIYSDGRRTFYGDSVK,YTAAGTFDS,36 µM,1/3,2/9
GDTLNSYGIS,VIYSDGRRTFYGDSVK,GRAKGTFDV,no signal,0/3,0/9
GFTLNHYGIS,VIYSDGRRTFYGDSMK,GRAAGTGDS,1.1 µM,2/3,0/9
FFTLNSYGIS,VIYSDGRRTFYGDAVK,GRAAGTFES,1.5 mM,1/3,2/9
EFTLNSYGIR,VCYSDGRRTFYGDSVK,GRAAGTFDS,42 µM,2/3,4/9
GFTLNSYGIS,RIYSDGRRTFYGDSVK,GRANGTFLS,180 µM,3/3,5/9
GFTINSYGIS,VSYSDGRRTFYGDSVK,GRAACTFDS,850 nM,1/3,1/9
GFTLNSYGNS,VIYSFGRRTFYGESVK,GRAAGTFDS,no signal,0/3,0/9
GFTLNSYGIS,VIYSDGRKTFYGDSVK,GRAFGTFDT,no signal,0/3,3/9
GFTLNSYCIS,SIYSDGRRQFYGDSVK,GRAAGTFDS,no signal,0/3,0/9
GFTLNSYGIS,VIYSGGRRWFYGDSVK,GCAAGTFDS,no signal,0/3,1/9
GFTLMSYGIS,VIYSDYRRTFYGDSVK,GRAAGTFDS,no signal,0/3,1/9
GFTLNSAGIS,VIYSDGRRTFYGDGVK,GREAGTFDS,27 nM,3/3,0/9
GFTLNSYGIS,VIYSDGKRTRNGDSVK,GRAAGTFDS,no signal,0/3,1/9
GFTLNSYGIS,VINSDGRRTFYGDSHK,KRAAGTFDS,no signal,0/3,0/9
GFDLNSYGIS,VIYSDGRRQFYGDSAK,GRAAGTFDS,9.4 nM,3/3,3/9
GFTLNSYGAS,VIYSDGRRTFYGDSEK,GRAAGHFDS,11 µM,1/3,1/9
GFTLNSYGIS,VIYSDDRRAFYGDSVK,GRAAGTLDS,no signal,0/3,0/9
GFELNSYGIS,VIYSDGRRTFYGDSVA,GSAAGTFDS,9.1 nM,3/3,1/9
GFTLNSYGIS,VIYSTGRRTFYGDPVK,GRAAGTRDS,1.9 µM,2/3,3/9
GFTLNSYGIS,VNYSDGRRTFHGDSSK,GRAAGTFDS,no signal,0/3,0/9
GFMLNSYGIS,RIYSDGRRTFYGDSVK,GRMAGTFDS,51 µM,1/3,2/9
GFTLNSYGIS,VIYVDGRRMFYGDSVK,GRAAGTFDS,490 nM,3/3,6/9
GFNLNSYGIS,VIYSDGSRTFLGDSVK,GRAAGTFDS,400 nM,3/3,1/9
GATLNSYGIS,VIYSDGRRTFYGDSVS,GTAAGTFDS,140 nM,3/3,1/9
GFTLNSYGIS,VIYSDGRRTFYWDSVK,GRASGTFDS,2.4 µM,1/3,0/9
GFTYNSYGLS,VIYSKGRRTFYGDSVK,GRAAGTFDS,560 nM,1/3,0/9
GFTLASYGDS,VIYSDGRRTFYGDSVK,GRRAGTFDS,7.0 µM,2/3,3/9
GFTLNSYGIS,VIYSDGYRTFTGDSVK,GRVAGTFDS,11 nM,3/3,1/9
FFTLNSYGIS,VMISDGRRTFYGDSVK,GRAAGTFDS,120 µM,1/3,3/9
GFTLNSYGIS,VIYSDGERTCYGDSVK,GRAAGTFDL,630 nM,3/3,3/9
GFTLNSYGIS,VIASDGRRTFYLDKVK,GRAAGTFDS,540 nM,1/3,1/9
GFTLNSYGIS,VHYSDCRRTFYGDGVK,GRAAGTFDS,25 µM,1/3,2/9
GFTLNSIMIS,VIYGDGRRTFYGDSVK,GRAAGTFDS,no signal,0/3,0/9
GFTLNSYGIS,VIYSDGRRGFYGNSVK,GRCAGTFDS,510 nM,1/3,1/9
GFTLNPYGIS,VIYSTGRRTFYGDSVW,GRAAGTFDS,no signal,0/3,0/9
GFTLNSYGIS,VIYSDGRRTFKGDSQK,GRACGTFDS,4.7 µM,2/3,4/9
GFTPNSYGIS,VIYSTGRRTFYGDSVQ,GRAAGTFDS,no signal,0/3,0/9
GFTLISYGIS,VIYQDGRRTFYGDSVK,GRANGTFDS,no signal,0/3,0/9
GFTLNSYGIS,VIYSDGRRTFYGDSVL,GTAAWTFDS,130 nM,3/3,4/9
GDTLNKYGIS,VIYSDGRRTFYGCSVK,GRAAGTFDS,6.3 µM,2/3,1/9
GFTLNSYGIS,VIYSDGRNTFYGDSVK,GRNAGTFGS,no signal,0/3,3/9
GFTLHSMGIS,VIYSDGRRTFYGDSVK,GRAAGTFDS,660 nM,3/3,2/9
GFTLNSYGIS,VIYSDGRRTFYGPSVI,GRAAGTFLS,12 µM,2/3,3/9
GFTANSYGIS,VIYSDGRTTFYGMSVK,GRAAGTFDS,no signal,0/3,2/9
GFTCNSYGIS,VIYSDGRRTFYGDSVK,GFAAGTFDS,1.9 µM,3/3,3/9
GFTLNSLGIS,AIYSDGRRTFYGNSVK,GRAAGTFDS,no signal,0/3,1/9
GFTLNSYGIS,VIYSDGRRTFYHDSQK,GRAAGTFDD,no signal,0/3,1/9
GFTLNSYYIS,VIYSDGRRTFYGDSVK,GEAMGTFDS,no signal,0/3,5/9
GFTLNSYGIS,VIYSDGRRTFQGDSVK,NRAAGTFDS,18 µM,2/3,1/9
EFTLNSYGIS,VIYEDGRRTFYGDSVK,GWAAGTFDS,5.6 µM,1/3,3/9
GFTLNSYGIS,VHYSPGRRTFYGMSVK,GRAAGTFDS,no signal,0/3,1/9
GFTLNSYGIS,VIYSDGRRTSYGDDVK,GRAARTFDS,15 nM,3/3,2/9
GFTLNSYGDS,VIYSDGRRTFYGDSVK,GFAAGTFSS,no signal,0/3,0/9
GHTLNSYGIS,VIYSDGRRTFYGDSVK,GRAKGTFDS,3.4 nM,3/3,2/9
GFTLNSYGIS,VIYSDGRRTFYGDSVK,CWAAGTFES,no signal,0/3,0/9
GFTLNSYGIS,VIYSDGGRTFYGDRVK,GRAAGTFDS,no signal,0/3,0/9

Repeated from above, the 8 best binders with a signal in all replicates:

| CDR-H1 | CDR-H2 | CDR-H3 | Kd (apparent) | replicates with signal | signal with controls |
|---|---|---|---|---|---|
| GHTLNSYGIS | VIYSDGRRTFYGDSVK | GRAKGTFDS | 3.4 nM | 3/3 | 2/9 |
| GFELNSYGIS | VIYSDGRRTFYGDSVA | GSAAGTFDS | 9.1 nM | 3/3 | 1/9 |
| GFDLNSYGIS | VIYSDGRRQFYGDSAK | GRAAGTFDS | 9.4 nM | 3/3 | 3/9 |
| GFTLNSYGIS | VIYSDGYRTFTGDSVK | GRVAGTFDS | 11 nM | 3/3 | 1/9 |
| GFTLNSYGIS | VIYSDGRRTSYGDDVK | GRAARTFDS | 15 nM | 3/3 | 2/9 |
| GFTLNSAGIS | VIYSDGRRTFYGDGVK | GREAGTFDS | 27 nM | 3/3 | 0/9 |
| GFTLNSYGIS | VIYSDGRRTFYGDSVL | GTAAWTFDS | 130 nM | 3/3 | 4/9 |
| GATLNSYGIS | VIYSDGRRTFYGDSVS | GTAAGTFDS | 140 nM | 3/3 | 1/9 |